The list shows a part of the results, in another mix than the full data. Inconclusive results are not listed. Active and inactive are the calls of the source. Unless noted, calls follow the shape of the dose curve; as a rule, active = well fitted curve in the direction sought with a large enough effect; inconclusive = small, poorly fitted or top-dose-only effect, or another doubt; inactive = no such curve, though single readings can be large; an effect the other way counts as inactive or inconclusive.
Tests used:
[1] = qHTS Assay for Identifying Gametocytocidal Compounds (AID 743244);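 also: % is scaled to controls: 0 for no effect and ±100 for the full control effect; actives lower the fluorescent signal which means gametocytes are killed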; conditions: P. falciparum 3D7 stage III-V gametocytes, alamarBlue, 72 h; max response: hits give low values
[2] = P-glycoprotein substrates identified in KB-8-5-11 adenocarcinoma cell line, qHTS therapeutic library screen (AID 1346987); conditions: KB-8-5-11 (P-gp overexpressing) viability, CellTiter-Glo, 72 h; at 44.5 µM (top of the series) unless noted; also: % is scaled to controls: 0 for no effect and ±100 for the full control effect; nearly all actives have a fitted effect of over 65% in size
[3] = qHTS of pediatric cancer cell lines to identify multiple opportunities for drug repurposing: Primary screen for TC32 cells (AID 1347089); conditions: TC32 Ewing sarcoma viability, CellTiter-Glo luminescence, 48 h; at 45.8 µM (top of the series) unless noted; also: % is scaled to controls: 0 for no effect and ±100 for the full control effect; nearly all actives have a fitted effect of over 60% in size
[4] = qHTS of pediatric cancer cell lines to identify multiple opportunities for drug repurposing: Primary screen for DAOY cells (AID 1347090);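 also: plate controls were DMSO for no effect and bortezomib for full effect; nearly all actives have a fitted effect of over 55% in size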
[5] = qHTS of pediatric cancer cell lines to identify multiple opportunities for drug repurposing: Primary screen for SJ-GBM2 cells (AID 1347091); conditions: SJ-GBM2 viability, CellTiter-Glo luminescence, 48 h; at 46 µM (top of the series) unless noted;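 also: plate controls were DMSO neutral control for no effect and bortezomib for full effect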
[6] = qHTS of pediatric cancer cell lines to identify multiple opportunities for drug repurposing: Primary screen for A673 cells (AID 1347092); conditions: A673 Ewing sarcoma viability, CellTiter-Glo ATP luminescence, 48 h; at 46 µM (top of the series) unless noted; also: % is scaled to controls: 0 for no effect and ±100 for the full control effect; nearly all actives have a fitted effect of over 45% in size
[7] = qHTS of pediatric cancer cell lines to identify multiple opportunities for drug repurposing: Primary screen for SK-N-MC cells (AID 1347093); conditions: SK-N-MC viability, CellTiter-Glo luminescence, 48 h; at 46 µM (top of the series) unless noted;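 also: plate controls were DMSO neutral control for no effect and bortezomib for full effect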
[8] = qHTS of pediatric cancer cell lines to identify multiple opportunities for drug repurposing: Primary screen for BT-37 cells (AID 1347094); conditions: BT-37 viability, CellTiter-Glo luminescence, 48 h; at 57.3 µM (top of the series) unless noted;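 also: plate controls were DMSO for no effect and bortezomib for full effect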
[9] = qHTS of pediatric cancer cell lines to identify multiple opportunities for drug repurposing: Primary screen for NB-EBc1 cells (AID 1347095); conditions: NB-EBc1 neuroblastoma viability, CellTiter-Glo luminescence, 48 h; at 46 µM (top of the series) unless noted;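 also: plate controls were DMSO neutral control for no effect and bortezomib for full effect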
[10] = qHTS of pediatric cancer cell lines to identify multiple opportunities for drug repurposing: Primary screen for U-2 OS cells (AID 1347096); conditions: U-2 OS viability, CellTiter-Glo luminescence, 48 h; at 46 µM (top of the series) unless noted;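 also: plate controls were DMSO wells for no effect and bortezomib positive control wells for full effect; nearly all actives have a fitted effect of over 50% in size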
[11] = qHTS of pediatric cancer cell lines to identify multiple opportunities for drug repurposing: Primary screen for Saos-2 cells (AID 1347097); conditions: Saos-2 viability, CellTiter-Glo ATP luminescence, 48 h; at 46 µM (top of the series) unless noted; also: % is scaled to controls: 0 for no effect and ±100 for the full control effect; nearly all actives have a fitted effect of over 40% in size
[12] = qHTS of pediatric cancer cell lines to identify multiple opportunities for drug repurposing: Primary screen for SK-N-SH cells (AID 1347098); conditions: SK-N-SH viability, CellTiter-Glo luminescence, 48 h; at 57 µM (top of the series) unless noted;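 also: DMSO served as neutral control and bortezomib at 2.3 µM as positive control; % is scaled to controls: 0 for no effect and ±100 for the full control effect; nearly all actives have a fitted effect of over 65% in size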
[13] = qHTS of pediatric cancer cell lines to identify multiple opportunities for drug repurposing: Primary screen for NB1643 cells (AID 1347099); conditions: NB1643 neuroblastoma viability, CellTiter-Glo luminescence, 48 h; at 46 µM (top of the series) unless noted;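 also: plate controls were DMSO neutral control for no effect and bortezomib positive control for full effect; nearly all actives have a fitted effect of over 50% in size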
[14] = qHTS of pediatric cancer cell lines to identify multiple opportunities for drug repurposing: Primary screen for LAN-5 cells (AID 1347100); conditions: LAN-5 neuroblastoma viability, CellTiter-Glo luminescence, 48 h; at 46 µM (top of the series) unless noted;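 also: plate controls were DMSO neutral control for no effect and bortezomib positive control for full effect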
[15] = qHTS of pediatric cancer cell lines to identify multiple opportunities for drug repurposing: Primary screen for BT-12 cells (AID 1347101);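 also: plate controls were DMSO for no effect and bortezomib positive control for full effect; nearly all actives have a fitted effect of over 25% in size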
[16] = qHTS of pediatric cancer cell lines to identify multiple opportunities for drug repurposing: Primary screen for Rh18 cells (AID 1347102); conditions: Rh18 rhabdomyosarcoma viability, CellTiter-Glo luminescence, 48 h; at 46 µM (top of the series) unless noted; also: % is scaled to controls: 0 for no effect and ±100 for the full control effect; nearly all actives have a fitted effect of over 65% in size
[17] = qHTS of pediatric cancer cell lines to identify multiple opportunities for drug repurposing: Primary screen for OHS-50 cells (AID 1347103);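 also: plate controls were DMSO neutral control for no effect and bortezomib positive control for full effect; nearly all actives have a fitted effect of over 40% in size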
[18] = qHTS of pediatric cancer cell lines to identify multiple opportunities for drug repurposing: Primary screen for RD cells (AID 1347104); conditions: RD rhabdomyosarcoma viability, CellTiter-Glo luminescence, 48 h; at 46 µM (top of the series) unless noted;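 also: plate controls were DMSO for no effect and bortezomib for full effect; nearly all actives have a fitted effect of over 55% in size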
[19] = qHTS of pediatric cancer cell lines to identify multiple opportunities for drug repurposing: Primary screen for MG 63 (6-TG R) cells (AID 1347105); conditions: MG 63 (6-TG R) viability, CellTiter-Glo, 48 h; at 46 µM (top of the series) unless noted; also: % is scaled to controls: 0 for no effect and ±100 for the full control effect; nearly all actives have a fitted effect of over 50% in size
[20] = qHTS of pediatric cancer cell lines to identify multiple opportunities for drug repurposing: Primary screen for control Hh wild type fibroblast cells (AID 1347106); conditions: Hh wild-type fibroblast viability, CellTiter-Glo luminescence, 48 h; at 46 µM (top of the series) unless noted;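 also: % is scaled to controls: 0 for no effect and ±100 for the full control effect; a drop in luminescence marks cytotoxicity and a rise apparent proliferation; nearly all actives have a fitted effect of over 55% in size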
[21] = qHTS of pediatric cancer cell lines to identify multiple opportunities for drug repurposing: Primary screen for Rh30 cells (AID 1347107); conditions: Rh30 rhabdomyosarcoma viability, CellTiter-Glo luminescence, 48 h; at 46 µM (top of the series) unless noted; also: % is scaled to controls: 0 for no effect and ±100 for the full control effect; nearly all actives have a fitted effect of over 75% in size
[22] = qHTS of pediatric cancer cell lines to identify multiple opportunities for drug repurposing: Primary screen for Rh41 cells (AID 1347108); conditions: Rh41 rhabdomyosarcoma viability, CellTiter-Glo luminescence, 48 h; at 46 µM (top of the series) unless noted;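 also: luminescence drop marks cytotoxic hits; nearly all actives have a fitted effect of over 70% in size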
[23] = qHTS to identify inhibitors of the type 1 interferon - major histocompatibility complex class I in skeletal muscle: primary screen against the NCATS Pharmaceutical Collection (AID 1347407); conditions: human skeletal muscle cells, IFN-b-induced MHC-I HiBiT luminescence, 24 h; at 45.9 µM (top of the series) unless noted;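 also: luminescence of HiBiT knocked into endogenous HLA-B as interferon-induced MHC class I level; % is scaled to controls: 0 for no effect and ±100 for the full control effect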
Summary of the method: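 Compounds […] were added to CRISPR-engineered HLA-B-HiBiT C25cl48 human myoblasts with 4.0 ng/ml IFN-beta. After 24 hrs at 37 C, cells were lysed and HiBiT luminescence measured.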

Sequences of proteins named here, by UniProt entry; tags and fusion partners are left off. A change or cut given only in a name is not applied to a line headed by its entry.
UniProt O15297: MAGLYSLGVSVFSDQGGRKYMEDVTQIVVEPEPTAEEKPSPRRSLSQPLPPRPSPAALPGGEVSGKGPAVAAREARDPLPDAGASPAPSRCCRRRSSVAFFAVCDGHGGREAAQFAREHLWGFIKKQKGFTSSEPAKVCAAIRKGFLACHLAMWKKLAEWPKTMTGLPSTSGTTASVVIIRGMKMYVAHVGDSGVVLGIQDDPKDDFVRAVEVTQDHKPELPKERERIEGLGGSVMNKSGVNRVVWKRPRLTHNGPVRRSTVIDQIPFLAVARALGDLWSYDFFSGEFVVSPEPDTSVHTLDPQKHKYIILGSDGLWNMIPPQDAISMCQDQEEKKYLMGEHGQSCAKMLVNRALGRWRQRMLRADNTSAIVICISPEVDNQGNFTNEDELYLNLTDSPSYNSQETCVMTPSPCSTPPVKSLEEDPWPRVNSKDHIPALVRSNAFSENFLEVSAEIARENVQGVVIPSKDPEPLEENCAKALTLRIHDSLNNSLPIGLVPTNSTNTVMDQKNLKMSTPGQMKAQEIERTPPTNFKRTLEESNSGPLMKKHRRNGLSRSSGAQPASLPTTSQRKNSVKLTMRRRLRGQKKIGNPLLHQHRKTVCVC

[24] = molecular target: Protein phosphatase 1D (Homo sapiens) (UniProt O15297); test: RapidFire Mass Spectrometry qHTS Assay for Modulators of WT P53-Induced Phosphatase 1 (WIP1) (AID 1347424); conditions: WIP1 dephosphorylation of phosphopeptide, RapidFire MS; at 63 µM (top of the series) unless noted;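 also: amount of dephosphorylated VEPPL-S-QETFS peptide product formed by WIP1; plate controls were DMSO wells for no effect and GSK830371 inhibitor control at 10 µM for full effect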
Summary of the method: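 RapidFire mass spectrometry measured dephosphorylated peptide after 5 min room-temperature reaction of 2 uM VEPPL-pS-QETFS with 10 nM WIP1 (50 mM Tris-HCl pH 7.5, 30 mM MgCl2, 0.1 mM EGTA, BSA), following 1 hr compound preincubation; 1 uM isotope-labelled product standard.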

[25] = molecular target: Protein phosphatase 1D (Homo sapiens) (UniProt O15297); test: Rhodamine-PBP qHTS Assay for Modulators of WT P53-Induced Phosphatase 1 (WIP1) (AID 1347425); conditions: recombinant WIP1, Rhodamine-PBP phosphate fluorescence, real-time; at 57.5 µM (top of the series) unless noted; also: % of control where 0% means no effect
Summary of the method: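 Steps: enzyme with Rh-PBP sensor and compounds, room-temperature incubation of 1 hr, baseline read, addition of VEPPL-pS-QETFS (10 uM final), kinetic fluorescence reads at 525/598 nm. Activity equals final minus baseline signal.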

[26] = A High-Content qHTS Against Drug Library for the Identification of Small Molecules that Inhibit DYT1 Early Onset Primary Dystonia-Associated Cell Pathology (AID 1645839; calls by dose curve)
Summary of the method: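 High-content imaging quantified EGFP-TorsinA mislocalization in HEK293-derived cells inducibly expressing DYT1 mutant torsinA, after 48 h exposure to compound given together with tetracycline induction. Cell count served as a toxicity channel alongside %pathology.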

CCNC(C)Cc1ccc2c(c1)OCO2 (stereo unspecified)
inactive: max response [1] -0.963% | activity change, negative = cytotoxicity [2] -13.3% [at 93.4 µM] | activity change, negative = cytotoxic [3] 4.31% [at 92.2 µM] | Potency [4] | activity change, negative = cytotoxic [5] -22.3% [at 92.7 µM] | activity change, negative = cytotoxic [6] -4.82% [at 92.7 µM] | activity change, negative = cytotoxic [7] -18.8% [at 92.7 µM] | activity change, negative = cytotoxic [8] -4.57% [at 116 µM] | activity change, negative = cytotoxic [9] -9.55% [at 92.7 µM] | activity change, negative = cytotoxic [10] -5.03% [at 92.7 µM] | activity change, negative = cytotoxic [11] -22.5% [at 92.7 µM] | activity change, negative = cytotoxic [12] 5.73% [at 115 µM] | activity change, negative = cytotoxic [13] 0% [at 92.7 µM] | activity change, negative = cytotoxic [14] -3.8% [at 92.7 µM] | Potency [15] | activity change, negative = cytotoxic [16] -0.225% [at 92.7 µM] | Potency [17] | activity change, negative = cytotoxic [18] -3.53% [at 92.7 µM] | activity change, negative = cytotoxic [19] -22.5% [at 92.7 µM] | activity change, negative = cytotoxic [20] 12.5% [at 92.7 µM] | activity change, negative = cytotoxic [21] 5.01% [at 92.7 µM] | activity change, negative = cytotoxic [22] -1.2% [at 92.7 µM] | activity change, negative = inhibition [23] -1.79% [at 92.2 µM] | activity change, negative = inhibition [24] -19.2% [at 128 µM] | activity change, negative = inhibition [25] 10% [at 116 µM] | Potency [26]
